Experimental data taken from US6936584B1, “Mixed amylin activity compounds” (Amylin Pharmaceuticals, Inc., priority 1998, dated 2005).

System: gastric emptying in rats
Assay: Phenol red gastric emptying assay in conscious rats
Settings: conscious rat model; adrenomedullin at highest doses (100 μg)

CGRP: calcitonin gene related peptide
inhibition of gastric emptying: dose-dependently inhibit gastric emptying
